The text below walks through data of US8598202B2, “Aryl-hydroxyethylamino-pyrimidines and triazines as modulators of fatty acid amide hydrolase” (Janssen Pharmaceutica NV, priority 2008, dated 2013).

The chains behind the UniProt entries cited, without tags or fusion partners.
UniProt P97612, whole entry: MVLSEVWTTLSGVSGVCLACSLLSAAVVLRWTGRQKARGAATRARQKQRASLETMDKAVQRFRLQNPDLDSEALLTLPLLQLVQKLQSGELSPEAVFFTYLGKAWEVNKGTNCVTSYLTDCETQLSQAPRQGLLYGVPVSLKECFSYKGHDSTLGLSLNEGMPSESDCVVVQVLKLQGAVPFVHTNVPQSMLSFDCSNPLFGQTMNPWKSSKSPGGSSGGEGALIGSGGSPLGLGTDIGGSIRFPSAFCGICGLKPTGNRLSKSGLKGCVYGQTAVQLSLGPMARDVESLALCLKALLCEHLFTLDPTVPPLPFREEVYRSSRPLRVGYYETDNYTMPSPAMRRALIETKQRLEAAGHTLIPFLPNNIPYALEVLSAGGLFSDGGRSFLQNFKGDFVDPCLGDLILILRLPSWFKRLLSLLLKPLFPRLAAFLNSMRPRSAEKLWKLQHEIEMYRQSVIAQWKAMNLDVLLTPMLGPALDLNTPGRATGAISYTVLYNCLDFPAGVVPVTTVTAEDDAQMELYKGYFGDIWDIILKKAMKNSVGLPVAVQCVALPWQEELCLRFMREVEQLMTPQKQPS

As usually defined, the IC50 is the concentration at which inhibition is half-maximal.

Where a name gives a salt, the structure may show the parent alone.

The target of the experiment is Rat FAAH-1 (Rattus norvegicus, UniProt P97612). Nature of the experiment: Assay Method 2: rat FAAH-1 assay, 3H-anandamide hydrolysis in homogenate of SK-N-MC cells transfected with rat FAAH. The settings on record: Assay 2 IC50 (μM).

Compound `O[C@@H](CNc1cc(-c2ccc(Cl)c(C(F)(F)F)c2)ncn1)c1ccccc1` [Example 28, (1R)-2-({6-[4-Chloro-3-(trifluoromethyl)phenyl]pyrimidin-4-yl}amino)-1-phenylethanol trifluoroacetic acid salt] displayed an IC50 of 0.064 µM.

In turn, `O[C@@H](CNc1cc(-c2ccc(OC(F)(F)F)c(F)c2)ncn1)c1ccccc1` [Example 29, (1R)-2-({6-[3-Fluoro-4-(trifluoromethoxy)phenyl]pyrimidin-4-yl}amino)-1-phenylethanol trifluoroacetic acid salt] had an IC50 of 0.026 µM.

As for `CC(=O)c1ccc(-c2cc(NC[C@H](O)c3ccccc3)ncn2)cc1F` [Example 51, 1-[2-Fluoro-4-(6-{[(2R)-2-hydroxy-2-phenylethyl]amino}pyrimidin-4-yl)phenyl]ethanone trifluoroacetic acid salt], the IC50 worked out at 0.007 µM.

Compound `O[C@@H](CNc1cc(-c2ccc(C(F)(F)F)cc2)ncn1)c1ccccc1` [Example 15, (1R)-1-Phenyl-2-({6-[4-(trifluoromethyl)phenyl]pyrimidin-4-yl}amino)ethanol] returned an IC50 of 0.068 µM.

In turn, `OC(CNc1cc(-c2ccc(C(F)(F)F)c(Cl)c2)ncn1)c1ccc(F)c(F)c1` (stereo not drawn) [Example 132, 2-[6-(3-Chloro-4-trifluoromethyl-phenyl)-pyrimidin-4-ylamino]-1-(3,4-difluoro-phenyl)-ethanol trifluoroacetic acid salt] registered an IC50 of 0.015 µM.

`O[C@@H](CNc1cc(-c2ccc(C(F)(F)F)c(Cl)c2)ncn1)c1ccc(F)c(F)c1` [Example 144, (1R)-2-[6-(3-Chloro-4-trifluoromethyl-phenyl)-pyrimidin-4-ylamino]-1-(3,4-difluoro-phenyl)-ethanol]: it took 0.003 µM to reach half-maximal inhibition (IC50).

The compound `O[C@@H](CNc1cc(-c2ccc(OCC(F)(F)F)c(F)c2)ncn1)c1ccccc1` [Example 178, (1R)-2-({6-[3-Fluoro-4-(2,2,2-trifluoroethoxy)phenyl]pyrimidin-4-yl}amino)-1-phenylethanol trifluoroacetic acid salt] had a concentration for half-maximal inhibition (IC50) of 0.07 µM.

`O[C@H](CNc1cc(-c2ccc(C(F)(F)F)c(Cl)c2)ncn1)c1ccc(F)c(F)c1` [Example 143, (1S)-2-[6-(3-Chloro-4-trifluoromethyl-phenyl)-Pyrimidin-4-ylamino]-1-(3,4-difluoro-phenyl)-ethanol]: the IC50 was found to be 4 µM.

With `OC(CNc1cc(-c2ccc(C(F)(F)F)cc2)ncn1)c1ccccc1` (stereo not drawn) [Example 4, 1-Phenyl-2-([6-[4-(trifluoromethyl)phenyl]pyrimidin-4-yl]amino)ethanol trifluoroacetic acid salt], the half-maximal inhibitory concentration (IC50) was 0.1 µM.
